What all share (type): cell-based
Assay [1] concerns CSF-1-dependent M-NFS-60 mouse myeloid leukemia cell. Nature of the assay: M-NFS-60 cell proliferation assay (CellTiter-96). As to conditions: Cytotoxicity, M-NFS-60 cells, 72 hours. The method, then: (§1) Inhibition of cell growth by compounds was measured using CellTiter™-96 assay. The cytotoxicity of compounds was evaluated in CSF-1-dependent M-NFS-60 mouse myeloid leukemia cell, FLT3 signal addicted MV4-11 human acute myeloid leukemia cell with FLT3-ITD mutation, c-KIT signal addicted Kasumi-1 human acute myeloid leukemia cell with c-KIT N822K activating mutation, and THP-1 human acute monocytic leukemia cell harboring NRAS G12D mutation.
The compounds disclosed herein were tested in M-NFS-60 cell proliferation assay to determine their cellular potency against CSF-1R. The proliferation and viability of M-NFS-60 cells, a murine myeloblastic cell line, depend on the binding of the ligand M-CSF to its receptor, CSF-1R, to proliferate. Inhibition of CSF-1R kinase activity will cause reduced growth and/or cell death. M-NFS-60 cells (catalog # CRL-1838) were obtained from the American Type Culture Collection (ATCC, Manassas, Va.). Briefly, cells were grown in suspension in RPMI 1640 medium supplemented with 10% characterized fetal bovine serum (Invitrogen, Carlsbad, Calif.), 0.05 mM 2-mercaptoethanol, and 20 ng/mL mouse recombinant macrophage colony stimulating factor (M-CSF) at 37° C., 5% CO2, and 95% humidity. Cells were allowed to expand until reaching saturation at which point they were subcultured or harvested for assay use.
(§2) M-NFS-60, Kasumi-1, MV4-11 and THP-1 cells were seeded into 96-well plates at 2000, 64000, 6500, and 5000 cells/well, respectively, and incubated at 37° C., 5% CO2 overnight. Then, these seeded cells were treated with increasing concentrations of the test compounds and incubated for another 72 hours. At the end of the incubation, CellTiter96® AQueous One Solution Reagent (Promega) was added and incubated for 4 hours. Cell viability was determined by measuring absorbance at 490 nm using EMax® microplate reader (Molecular Devices).
(§3) The 50% inhibitory concentration (IC50) value was calculated by plotting the percentage of growth inhibition against the concentration of compound, using GraphPad Prism 5 software for curve fitting.

Assay [2] deals with MV4-11 human acute myeloid leukemia cell with FLT3-ITD mutation. Nature of the assay: MV4-11 cell proliferation assay (CellTiter-96). The following applies: read-out: MV4-11 IC50. On the procedure: as §1
The compounds disclosed herein were tested in MV4-11 cell proliferation assay to determine their cellular potency against FLT3 kinase. MV4-11 human acute myeloid leukemia cells harbor ligand-independent FLT3-ITD activating mutation, which render its proliferation FLT3-ITD dependent. Inhibition of FLT3 kinase activity will cause reduced growth and/or cell death. MV4-11 cells (catalog # CRL-9591) were obtained from the American Type Culture Collection (ATCC, Manassas, Va.). […] Cells were allowed to expand until reaching saturation at which point they were subcultured or harvested for assay use.
as §2, §3

For assay [3], the system named is Kasumi-1 human acute myeloid leukemia cell with c-KIT N822K activating mutation. Nature of the assay: Kasumi-1 cell proliferation assay (CellTiter-96). The following applies: Cytotoxicity, Kasumi-1 cells. The method, then: as §1
The compounds disclosed herein were tested in Kasumi cell proliferation assay to determine their cellular potency against c-KIT kinase. Kasumi human acute myeloid leukemia cells harbor ligand-independent N822K c-KIT activating mutation, thus the cell proliferation relied on c-KIT signal. Inhibition of c-KIT kinase activity will cause reduced growth and/or cell death. Kasumi-1 cells (catalog # CRL-2724) were obtained from the American Type Culture Collection (ATCC, Manassas, Va.). Briefly, cells were grown in suspension in RPMI 1640 medium supplemented with 10% characterized fetal bovine serum (Invitrogen, Carlsbad, Calif.) at 37° C., 5% CO2, and 95% humidity. Cells were allowed to expand until reaching saturation at which point they were subcultured or harvested for assay use.
as §2, §3

The subject of assay [4] is THP-1 human acute monocytic leukemia cell harboring NRAS G12D mutation. Nature of the assay: THP-1 cell proliferation assay (counter screen, CellTiter-96). As to conditions: Cytotoxicity, THP-1 cells (counter screen), 72 hours. On the procedure:
as §1
THP-1 human acute monocytic leukemia cells harbor NRAS G12D mutation, which renders cell proliferate independently of class III RTKs signal. THP-1 cells (catalog # TIB-202) were obtained from the ATCC. Briefly, cells were grown in RPMI 1640 supplemented with 10% characterized fetal bovine serum, and 0.05 mM 2-mercaptoethanol at 37° C., 5% CO2, 95% humidity. Cells were allowed to expand until reaching saturation at which point they were subcultured or harvested for assay use.
as §2, §3
Background: The purpose of a counterscreen is to sort out artefacts and off-target activity.

Assay [5] relates to osteoclast precursors (osteoclast differentiation). Nature of the assay: Osteoclast tartrate-resistant acid phosphatase assay. As to conditions: 168 h, at 1 μM treatment, 7 days, RANKL and M-CSF, read-out: inhibition activity against osteoclast differentiation. The method, then:
A serial dilution of test compound was dispensed into a 96-well black clear bottom plate. Compound was diluted by the addition of DMEM media supplemented with 10% characterized fetal bovine serum. Diluted compound was transferred to a 96-well black clear bottom plate. Three thousand osteoclast precursors (Lonza, Walkersville, Md.) were added per well in growth medium containing Receptor Activator of Nuclear Factor Kappa-beta ligand (RANKL) and M-CSF. Plates were incubated for 7 days at 37° C., 5% CO2, and 95% humidity to allow differentiation of osteoclast precursors. At the end of the incubation period, 50 μL of supernatant from each well was transferred to a clear 96-well plate. Tartrate-resistant acid phosphatase activity in the supernatant samples was determined using an acid phosphatase assay kit (Sigma, St. Louis, Mo.). Absorbance was measured at 550 nm using a plate reader. […] The Inhibition activity against osteoclast differentiation for each compound at 1 μM treatment in duplicate was measured.

Read-outs that look alike come from different tables or passages of the source. Some results are limits rather than exact numbers.

Turning to `COc1cc(Nc2ccc3ncc(N4CCOCC4)nc3c2C#N)ccc1OCc1ccc(C)nc1` [Example 54, 6-((3-methoxy-4-((6-methylpyridin-3-yl)methoxy)phenyl)amino)-3-morpholinoquinoxaline-5-carbonitrile], the concentration for half-maximal inhibition (IC50) – broadly, the point on the concentration scale where inhibition reaches its midpoint – is less than 300 nM in assay [1] (Mus musculus); 1000 to 10000 nM in assay [2] (Homo sapiens, MV4-11, 72 h); 300 to 1000 nM in assay [3] (Homo sapiens, Kasumi 1, 72 h); greater than 10000 nM in assay [4] (Homo sapiens). In assay [5], the inhibition (commonly how much of the control response was suppressed) at 1 µM was greater than 50%.

Consider `COc1ccc(COc2ccc(Oc3ccc4ncc(OC)nc4c3C#N)cc2OC)cc1` [Example 26, 3-methoxy-6-(3-methoxy-4-((4-methoxybenzyl)oxy)phenoxy)quinoxaline-5-carbonitrile], for which the IC50 was less than 300 nM in assay [1], greater than 10000 nM in assay [2], 1000 to 10000 nM in assay [3] (72 hours) and greater than 10000 nM in assay [4].

As to `COc1cc(Nc2ccc3ncc(N4CCOCC4)nc3c2C#N)ccc1OCc1cnn(C2CC2)c1` [Example 134, 6-((4-((1-cyclopropyl-1H-pyrazol-4-yl)methoxy)-3-methoxy-phenyl)amino)-3-morpholinoquinoxaline-5-carbonitrile], the 50% inhibitory concentration (IC50) in assay [1] (Mus musculus) is less than 300 nM; in assay [2] (Homo sapiens, MV4-11, 72 h), 1000 to 10000 nM; in assay [3] (Homo sapiens, Kasumi 1, 72 h), 300 to 1000 nM; in assay [4] (Homo sapiens) it was greater than 10000 nM. In addition, the inhibition at 1 µM in assay [5] was greater than 50%.

Regarding `COc1ccc(COc2ccc(Oc3ccc4ncc(OC)nc4c3C#N)cc2OC)cc1` [Example 10, 3-methoxy-6-(3-methoxy-4-((4-methoxpenzyl)oxy)phenoxy)quinoxaline-5-carbonitrile], the IC50 in assay [1] (Mus musculus) was less than 300 nM; in assay [2], 1000 to 10000 nM; in assay [3] (72 hours), greater than 10000 nM; in assay [4] (Homo sapiens), greater than 10000 nM. Also, the inhibition at 1 µM in assay [5] was greater than 50%.

`COc1cc(Nc2ccc3ncc(N4CCOCC4)nc3c2C#N)ccc1OCc1cnc(C)nc1` [Example 128, 6-((3-methoxy-4-((2-methylpyrimidin-5-yl)methoxy)phenyl)amino)-3-morpholinoquinoxaline-5-carbonitrile]: the 50% inhibitory concentration (IC50) in assay [1] (Mus musculus) was 300 to 1000 nM; in assay [2] (Homo sapiens, MV4-11, 72 h), 1000 to 10000 nM; in assay [3] (Homo sapiens, Kasumi 1, 72 h), 1000 to 10000 nM; in assay [4] (Homo sapiens) it was greater than 10000 nM.

In the case of `CCOc1cc(Oc2ccc3ncc(OC)nc3c2C#N)ccc1OCc1ccc(OC)cc1` [Example 30, 6-(3-ethoxy-4-((4-methoxybenzyl)oxy)phenoxy)-3-methoxyquinoxaline-5-carbonitrile], the IC50 in assay [1] (Mus musculus) was less than 300 nM; in assay [2] (Homo sapiens, MV4-11, 72 h) it was greater than 10000 nM; in assay [3] (Homo sapiens, Kasumi 1, 72 h) it was greater than 10000 nM; in assay [4] (Homo sapiens), greater than 10000 nM.

For the molecule `COc1cc(Nc2ccc3ncc(N4CCOCC4)nc3c2C#N)ccc1OCc1cccnc1` [Example 43, 6-((3-methoxy-4-(pyridin-3-ylmethoxy)phenyl)amino)-3-morpholinoquinoxaline-5-carbonitrile], the IC50 in assay [1] (Mus musculus) was 300 to 1000 nM; in assay [2] (Homo sapiens, MV4-11, 72 h) it was 1000 to 10000 nM; in assay [3] (Homo sapiens, Kasumi 1, 72 h) it was 300 to 1000 nM; in assay [4] (Homo sapiens), greater than 10000 nM.

Source of the values: US10689362B2, “Quinoxaline compounds as type III receptor tyrosine kinase inhibitors” (Development Center for Biotechnology, priority 2016, dated 2020).
